Measurements published in patent publication US9334290B2, “Substituted tetrahydrocarbazole and carbazole carboxamide compounds” (Bristol-Myers Squibb Company, priority 2013, dated 2016).

Chains of the proteins cited; added tags and fusions are not shown. Lines headed by an entry give the natural chain unless they say otherwise; changes in a name come on top.
UniProt Q06187: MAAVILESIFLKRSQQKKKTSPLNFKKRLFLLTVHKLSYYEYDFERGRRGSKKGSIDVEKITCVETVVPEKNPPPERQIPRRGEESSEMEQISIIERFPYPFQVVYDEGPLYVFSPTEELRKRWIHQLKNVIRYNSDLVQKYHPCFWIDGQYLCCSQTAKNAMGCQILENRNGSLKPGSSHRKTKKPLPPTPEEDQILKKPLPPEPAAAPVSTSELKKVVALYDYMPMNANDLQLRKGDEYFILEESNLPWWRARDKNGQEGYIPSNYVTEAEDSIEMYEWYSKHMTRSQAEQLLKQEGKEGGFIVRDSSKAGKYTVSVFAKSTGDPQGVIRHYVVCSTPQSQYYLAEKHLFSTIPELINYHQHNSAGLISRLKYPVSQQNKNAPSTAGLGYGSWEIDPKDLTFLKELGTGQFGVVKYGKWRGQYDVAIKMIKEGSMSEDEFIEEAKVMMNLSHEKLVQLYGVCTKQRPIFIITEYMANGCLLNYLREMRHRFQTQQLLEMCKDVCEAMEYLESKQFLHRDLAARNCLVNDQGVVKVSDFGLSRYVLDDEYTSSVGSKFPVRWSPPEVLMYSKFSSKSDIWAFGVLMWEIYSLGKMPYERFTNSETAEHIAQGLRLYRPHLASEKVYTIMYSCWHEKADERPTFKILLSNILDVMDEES
UniProt O60674: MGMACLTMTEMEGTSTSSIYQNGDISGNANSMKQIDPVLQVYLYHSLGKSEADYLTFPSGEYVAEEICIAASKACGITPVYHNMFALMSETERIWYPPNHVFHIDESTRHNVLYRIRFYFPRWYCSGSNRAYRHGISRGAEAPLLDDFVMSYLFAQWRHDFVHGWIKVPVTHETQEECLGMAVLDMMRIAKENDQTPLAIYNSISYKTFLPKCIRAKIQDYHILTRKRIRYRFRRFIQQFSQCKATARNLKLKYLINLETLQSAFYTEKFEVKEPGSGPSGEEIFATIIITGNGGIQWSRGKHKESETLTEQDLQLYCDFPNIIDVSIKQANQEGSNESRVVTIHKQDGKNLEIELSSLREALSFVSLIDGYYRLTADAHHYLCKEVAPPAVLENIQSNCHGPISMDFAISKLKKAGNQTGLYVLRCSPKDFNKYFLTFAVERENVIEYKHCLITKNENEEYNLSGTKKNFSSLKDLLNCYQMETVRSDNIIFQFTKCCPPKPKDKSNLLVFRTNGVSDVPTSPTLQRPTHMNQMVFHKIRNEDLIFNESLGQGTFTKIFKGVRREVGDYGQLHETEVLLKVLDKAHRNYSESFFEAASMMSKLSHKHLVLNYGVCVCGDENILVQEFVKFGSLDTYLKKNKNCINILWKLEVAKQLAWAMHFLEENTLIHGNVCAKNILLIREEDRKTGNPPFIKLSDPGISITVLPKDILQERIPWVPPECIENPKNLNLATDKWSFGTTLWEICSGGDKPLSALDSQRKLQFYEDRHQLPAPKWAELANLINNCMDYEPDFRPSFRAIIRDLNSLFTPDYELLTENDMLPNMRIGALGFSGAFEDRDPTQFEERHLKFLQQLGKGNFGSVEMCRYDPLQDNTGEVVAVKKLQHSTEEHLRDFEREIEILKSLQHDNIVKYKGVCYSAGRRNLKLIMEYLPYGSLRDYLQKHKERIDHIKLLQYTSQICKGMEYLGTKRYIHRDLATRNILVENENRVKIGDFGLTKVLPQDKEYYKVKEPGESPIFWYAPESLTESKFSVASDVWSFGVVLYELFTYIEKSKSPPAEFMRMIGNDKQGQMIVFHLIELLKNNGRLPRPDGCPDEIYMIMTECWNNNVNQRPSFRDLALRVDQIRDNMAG

Tests used:
human recombinant Btk = human recombinant Btk (Homo sapiens (Human), UniProt Q06187); assay: Human Recombinant Btk enzyme assay; type: biochemical
Jak2 tyrosine kinase = Jak2 tyrosine kinase (Homo sapiens (Human), UniProt O60674); assay: Jak2 tyrosine kinase assay; type: biochemical; settings: for Ratio of Jak2/Btk IC50 values: selectivity of Btk over Jak2

SMILES | IC50 (human recombinant Btk) [nM] | Ratio of Jak2/Btk IC50 values (Jak2 tyrosine kinase) | IC50 (Jak2 tyrosine kinase) [nM]
Cc1c(-c2c(Cl)cc(C(N)=O)c3[nH]c4c(c23)CC[C@H](C(C)(C)O)C4)cccc1-n1c(=O)c2cccc(F)c2n(C)c1=O (atropisomer, axis not shown) [Example 26, 6-Chloro-5-(R)-(3-(S)-(8-fluoro-1-methyl-2,4-dioxo-1,2-dihydroquinazolin-3(4H)-yl)-2-methylphenyl)-2-(S)-(2-hydroxypropan-2-yl)-2,3,4,9-tetrahydro-1H-carbazole-8-carboxamide] | 1.2 | 6300 | 
Cc1c(-c2c(F)cc(C(N)=O)c3[nH]c4c(c23)CC[C@@H](C(C)(C)O)C4)cccc1-n1c(=O)c2cccc(F)c2n(C)c1=O (atropisomer, axis not shown) [Example 27, 6-Fluoro-5-(R)-(3-(S)-(8-fluoro-1-methyl-2,4-dioxo-1,2-dihydroquinazolin-3(4H)-yl)-2-methylphenyl)-2-(R)-(2-hydroxypropan-2-yl)-2,3,4,9-tetrahydro-1H-carbazole-8-carboxamide] |  | >910 | 
Cc1c(-c2c(C#N)cc(C(N)=O)c3[nH]c4cc(C(C)(C)O)ccc4c23)cccc1-n1c(=O)c2cccc(F)c2n(C)c1=O (single isomer, unassigned) [Example 16] |  | 7000 | 
Cc1c(-c2c(F)cc(C(N)=O)c3[nH]c4c(c23)CC[C@H](C(C)(C)O)C4)cccc1-n1c(=O)cc2c(Cl)cccn2c1=O (single isomer, unassigned) [Example 64] | 0.34 |  | 
Cc1c(-c2c(F)cc(C(N)=O)c3[nH]c4c(c23)CC[C@H](C(C)(C)O)C4)cccc1-n1c(=O)cc2c(Cl)cccn2c1=O (single isomer, unassigned) [Example 65] | 0.46 |  | 
Cc1c(-c2ccc(C(N)=O)c3[nH]c4cc(C(C)(C)O)ccc4c23)cccc1-n1cnc2ccccc2c1=O [Comparative Example 75, 7-(2-Hydroxypropan-2-yl)-4-(2-methyl-3-(4-oxoquinazolin-3(4H)-yl)phenyl)-9H-carbazole-1-carboxamide, reference compound] |  |  | 240
Cc1c(-c2c(Cl)cc(C(N)=O)c3[nH]c4c(c23)CC[C@H](C(C)(C)O)C4)cccc1-n1c(=O)c2cccc(F)c2n(C)c1=O [Example 25, 6-Chloro-5-(3-(8-fluoro-1-methyl-2,4-dioxo-1,2-dihydroquinazolin-3(4H)-yl)-2-methylphenyl)-2-(S)-(2-hydroxypropan-2-yl)-2,3,4,9-tetrahydro-1H-carbazole-8-carboxamide] | 0.9 |  | 
